Values of other authors, collected in patent US9918467B2, “Anti-microbial disinfectant wipe and method of use” (Microlin, LLC, priority 2013, dated 2018).

Settings: single silver compound used as silver ion source; aqueous

silver salicylate
solubility for the compound: 950 µg/mL
